From ChEMBL document CHEMBL5576124, “Discovery of an Exceptionally Orally Bioavailable and Potent HPK1 PROTAC with Enhancement of Antitumor Efficacy of Anti-PD-L1 Therapy” (J Med Chem, 2024)

Assay: Selectivity ratio of IC50 for inhibition of HPK1 (unknown origin) to IC50 for inhibition of GLK (unknown origin)

- Ratio IC50: 16
Structure (SMILES): Cc1cc(-c2c[nH]c3ncc(-c4ccc(C5CCN(C6CN(c7ccc8c(c7)C(=O)N(C7CCC(=O)NC7=O)C8=O)C6)CC5)cc4)nc23)ccc1C(=O)N(C)C (stereo unspecified)
